Legend:
PI3K-α [1] = target: PI3K-α (Homo sapiens (Human), UniProt P42336); assay: In vitro enzyme inhibition assay (Kinase Glo); assay type: biochemical; conditions: Test protocol a; mean of replicates
Experimental: (§1) The inhibition of PI3K-β, PI3K-α, PI3K-γ and PI3K-δ was evaluated in a Kinase Glo based enzyme activity assay using human recombinant enzymes. The assay platform indirectly measured the depletion of ATP after incubation with enzyme, PIP2 substrate, ATP and compound.
(§2) After completion of the enzyme reaction the remaining ATP was used in a secondary enzymatic reaction, where Luciferase converted beetle luciferin into oxyluciferin under the emission of light. A direct relationship existed between the luminescence measured and the ATP remaining in a completed kinase reaction. Therefore, the luminescence was inversely related to the kinase activity.
(§3) Compounds in 100% DMSO were added to assay plates by acoustic dispensing. PI3K enzyme was added in a Tris buffer (50 mM Tris pH7.4, 0.05% CHAPS, 2.1 mM DTT, and 10 mM magnesium chloride) and allowed to preincubate with compound for 20 minutes prior to addition of substrate solution containing PIP2 and ATP. The enzyme reaction was stopped after 80 minutes by the addition of Kinase Glo detection solution containing Lucferin and Luciferase (from Kinase Glo® Plus Luminecent Kinase Assay kit (Promega #V3772). Plates were left for 30 minutes at room temperature then read on a Pherastar Instrument with a standard Luminescence filter block. The final concentration of DMSO, ATP and PIP2 in the assay were, 1%, 8 μM, and 80 μM respectively.
IC50 values were calculated using a log curve fitting to a non-linear regression fit.

Amino acid sequences for entries named in this document (tags omitted). A change or cut given only in a name is not applied to a line headed by its entry.
UniProt P42336, whole entry, looked up: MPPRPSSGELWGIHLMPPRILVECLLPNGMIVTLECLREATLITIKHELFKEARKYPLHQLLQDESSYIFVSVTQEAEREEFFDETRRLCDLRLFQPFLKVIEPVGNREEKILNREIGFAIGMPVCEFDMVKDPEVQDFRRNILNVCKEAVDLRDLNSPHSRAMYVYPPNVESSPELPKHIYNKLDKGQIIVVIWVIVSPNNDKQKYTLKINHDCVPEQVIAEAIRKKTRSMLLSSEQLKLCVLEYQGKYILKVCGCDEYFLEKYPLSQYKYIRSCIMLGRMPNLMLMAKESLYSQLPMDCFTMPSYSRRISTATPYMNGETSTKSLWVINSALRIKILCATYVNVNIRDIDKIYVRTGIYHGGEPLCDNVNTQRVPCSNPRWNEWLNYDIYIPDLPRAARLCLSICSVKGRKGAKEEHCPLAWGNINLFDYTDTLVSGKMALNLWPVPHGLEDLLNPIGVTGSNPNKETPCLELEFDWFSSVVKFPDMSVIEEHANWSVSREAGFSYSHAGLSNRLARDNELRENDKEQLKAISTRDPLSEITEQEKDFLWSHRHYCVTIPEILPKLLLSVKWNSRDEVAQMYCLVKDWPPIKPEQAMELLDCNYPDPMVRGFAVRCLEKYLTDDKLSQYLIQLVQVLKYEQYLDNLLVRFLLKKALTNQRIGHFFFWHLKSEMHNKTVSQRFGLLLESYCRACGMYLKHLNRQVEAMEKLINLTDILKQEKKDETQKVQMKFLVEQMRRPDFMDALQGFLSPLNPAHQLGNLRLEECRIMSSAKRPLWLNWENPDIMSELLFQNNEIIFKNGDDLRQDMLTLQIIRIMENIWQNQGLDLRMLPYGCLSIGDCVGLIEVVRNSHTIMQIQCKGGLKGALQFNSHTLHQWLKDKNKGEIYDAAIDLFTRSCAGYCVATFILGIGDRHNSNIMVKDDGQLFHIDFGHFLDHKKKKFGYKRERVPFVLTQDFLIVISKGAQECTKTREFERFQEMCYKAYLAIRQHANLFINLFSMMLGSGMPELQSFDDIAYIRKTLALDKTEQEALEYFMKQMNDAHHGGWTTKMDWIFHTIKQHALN
UniProt P42336, whole entry K111N, looked up: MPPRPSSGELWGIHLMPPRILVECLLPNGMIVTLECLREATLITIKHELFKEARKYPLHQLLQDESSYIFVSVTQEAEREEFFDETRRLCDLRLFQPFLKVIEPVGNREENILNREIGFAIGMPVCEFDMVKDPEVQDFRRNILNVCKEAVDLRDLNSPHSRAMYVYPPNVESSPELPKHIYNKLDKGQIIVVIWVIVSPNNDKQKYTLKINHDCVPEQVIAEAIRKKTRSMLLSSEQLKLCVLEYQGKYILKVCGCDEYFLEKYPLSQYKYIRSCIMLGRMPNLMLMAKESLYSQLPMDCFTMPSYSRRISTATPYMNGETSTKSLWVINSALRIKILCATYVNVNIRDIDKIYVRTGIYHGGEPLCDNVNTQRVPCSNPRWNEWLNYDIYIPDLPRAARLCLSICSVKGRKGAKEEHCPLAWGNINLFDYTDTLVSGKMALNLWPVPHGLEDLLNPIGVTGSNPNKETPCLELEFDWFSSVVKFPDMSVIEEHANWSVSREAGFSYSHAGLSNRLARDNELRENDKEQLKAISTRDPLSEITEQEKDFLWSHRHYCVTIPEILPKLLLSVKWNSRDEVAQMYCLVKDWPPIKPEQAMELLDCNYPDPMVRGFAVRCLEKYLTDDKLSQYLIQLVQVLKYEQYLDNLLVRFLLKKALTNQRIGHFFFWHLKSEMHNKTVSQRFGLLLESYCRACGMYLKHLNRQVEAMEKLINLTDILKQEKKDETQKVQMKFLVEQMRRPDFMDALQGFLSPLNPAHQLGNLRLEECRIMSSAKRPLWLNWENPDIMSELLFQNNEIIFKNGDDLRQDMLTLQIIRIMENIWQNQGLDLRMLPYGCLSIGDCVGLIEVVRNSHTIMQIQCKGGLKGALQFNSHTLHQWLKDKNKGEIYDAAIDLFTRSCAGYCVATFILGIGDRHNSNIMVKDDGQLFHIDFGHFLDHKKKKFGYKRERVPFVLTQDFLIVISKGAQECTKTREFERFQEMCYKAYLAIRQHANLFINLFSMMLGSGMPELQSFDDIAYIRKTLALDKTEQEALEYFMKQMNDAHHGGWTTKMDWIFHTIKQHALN
UniProt P42338: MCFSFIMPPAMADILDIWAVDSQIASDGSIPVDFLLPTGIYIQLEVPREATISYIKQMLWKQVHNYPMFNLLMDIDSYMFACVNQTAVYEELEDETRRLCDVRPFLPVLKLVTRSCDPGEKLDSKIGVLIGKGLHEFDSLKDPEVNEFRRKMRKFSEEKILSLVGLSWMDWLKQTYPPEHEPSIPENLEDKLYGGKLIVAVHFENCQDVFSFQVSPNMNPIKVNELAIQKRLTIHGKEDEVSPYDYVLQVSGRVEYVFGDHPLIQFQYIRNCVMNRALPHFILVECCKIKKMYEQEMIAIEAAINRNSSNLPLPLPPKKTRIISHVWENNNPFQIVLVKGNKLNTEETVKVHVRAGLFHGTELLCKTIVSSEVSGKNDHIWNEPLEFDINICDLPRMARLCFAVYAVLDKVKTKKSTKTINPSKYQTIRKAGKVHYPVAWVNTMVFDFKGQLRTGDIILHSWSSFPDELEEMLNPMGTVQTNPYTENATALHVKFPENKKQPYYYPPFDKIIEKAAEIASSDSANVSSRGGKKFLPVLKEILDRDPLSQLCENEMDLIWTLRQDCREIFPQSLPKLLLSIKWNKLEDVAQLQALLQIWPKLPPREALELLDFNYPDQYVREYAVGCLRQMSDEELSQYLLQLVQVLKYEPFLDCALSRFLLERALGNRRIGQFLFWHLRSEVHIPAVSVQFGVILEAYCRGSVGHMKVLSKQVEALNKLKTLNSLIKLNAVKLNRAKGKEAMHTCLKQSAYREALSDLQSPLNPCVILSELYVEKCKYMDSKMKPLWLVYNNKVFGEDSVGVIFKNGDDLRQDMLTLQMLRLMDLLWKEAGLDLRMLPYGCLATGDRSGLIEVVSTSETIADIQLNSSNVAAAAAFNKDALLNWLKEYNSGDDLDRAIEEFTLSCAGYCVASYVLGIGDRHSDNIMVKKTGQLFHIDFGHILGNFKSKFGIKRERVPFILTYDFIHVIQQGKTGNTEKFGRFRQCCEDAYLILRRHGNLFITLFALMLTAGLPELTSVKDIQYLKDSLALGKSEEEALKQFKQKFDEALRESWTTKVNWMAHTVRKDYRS

PI3K-α [2] = target: PI3K-α (Homo sapiens (Human), UniProt P42336, K111N); assay: Phosphorylated AKT (Thr308) in BT474 cells (PI3K-α cell assay); assay type: cell-based; conditions: Test protocol c, mean of replicates
PI3K-β = PI3K-β (Homo sapiens (Human), UniProt P42338); assay: In vitro enzyme inhibition assay (Kinase Glo); assay type: biochemical
Experimental: as §1
as §2, with “activity. […]” for “activity.”
as §3, with “PI3K enzyme was added in a Tris buffer (50 mM Tris pH7.4, 0.05% CHAPS, 2.1 mM DTT, and 10 mM magnesium chloride) and allowed to preincubate with compound for 20 minutes prior to addition of substrate solution containing PIP2 and ATP.” left out
IC50 values were calculated using a log curve fitting to a non-linear regression fit. […]

IC50 (PI3K-α [1]) [nM] | IC50 (PI3K-α [2]) [nM] | SMILES | IC50 (PI3K-β) [nM]
30 | – | C[C@H](O)CC(=O)N1CCC(c2nc(-c3cnc(N)c(-c4nnc(C(C)(C)C)o4)n3)n(C)n2)CC1 [Example 5, (3S)-1-[4-[5-[5-amino-6-(5-tert-butyl-1,3,4-oxadiazol-2-yl)pyrazin-2-yl]-1-methyl-1,2,4-triazol-3-yl]-1-piperidyl]-3-hydroxy-butan-1-one] | –
25 | 310 | C[C@@H](O)CC(=O)N1CCC(c2nc(-c3cnc(N)c(-c4nnc(C(C)(C)C)o4)n3)n(C)n2)CC1 [Example 4, (3R)-1-[4-[5-[5-amino-6-(5-tert-butyl-1,3,4-oxadiazol-2-yl)pyrazin-2-yl]-1-methyl-1,2,4-triazol-3-yl]-1-piperidyl]-3-hydroxy-butan-1-one] | –

Second part, the molecule before the results:

SMILES | IC50 (PI3K-α [1]) [nM] | IC50 (PI3K-α [2]) [nM] | IC50 (PI3K-β) [nM]
C[C@H](CO)C(=O)N1CCC(c2nc(-c3cnc(N)c(-c4nnc(C(C)(C)C)o4)n3)n(C)n2)CC1 [Example 6, (2R)-1-[4-[5-[5-amino-6-(5-tert-butyl-1,3,4-oxadiazol-2-yl)pyrazin-2-yl]-1-methyl-1,2,4-triazol-3-yl]-1-piperidyl]-3-hydroxy-2-methyl-propan-1-one] | 32 | – | –
CCn1nc(C2CCN(C(=O)CCO)CC2)nc1-c1cnc(N)c(-c2nnc(C(C)(C)C)o2)n1 [Example 3, 1-(4-(5-(5-amino-6-(5-tert-butyl-1,3,4-oxadiazol-2-yl)pyrazin-2-yl)-1-ethyl-1H-1,2,4-triazol-3-yl)piperidin-1-yl)-3-hydroxypropan-1-one] | – | – | 570
CCn1nc(C2CCN(C(=O)CC(=O)O)CC2)nc1-c1cnc(N)c(-c2nnc(C(C)(C)C)o2)n1 [Example 9, 3-[4-[5-[5-amino-6-(5-tert-butyl-1,3,4-oxadiazol-2-yl)pyrazin-2-yl]-1-ethyl-1,2,4-triazol-3-yl]-1-piperidyl]-3-oxo-propanoic acid] | < 10 | – | –

From US9156831B2, “Chemical compounds” (ASTRAZENECA AB, priority 2013, dated 2015)
